# Binding of CDR-mutated scFvs to a peptide of the spike HR2 region

Target peptide (SARS-CoV-2 spike, HR2 region): PDVDLGDISGINAS

Ab-91 is the parent antibody, in scFv form: VL, then three GGGGS repeats, then VH. The light chain is unchanged in all variants.
VL: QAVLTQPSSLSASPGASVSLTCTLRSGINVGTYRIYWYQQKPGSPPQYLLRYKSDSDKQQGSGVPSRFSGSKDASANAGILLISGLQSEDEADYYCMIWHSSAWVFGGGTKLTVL
VH: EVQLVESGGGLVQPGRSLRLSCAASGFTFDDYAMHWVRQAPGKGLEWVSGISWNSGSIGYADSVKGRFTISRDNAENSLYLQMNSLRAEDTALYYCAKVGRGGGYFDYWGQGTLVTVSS

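The starting antibody came from a phage panning campaign against this peptide. Library AAYL51 holds single substitutions and randomly drawn double and triple substitutions in the CDRs. Affinity was read by AlphaSeq, a pooled yeast mating assay with surface-displayed partners. The frequency of each diploid, read from paired DNA barcodes, reflects how well the two displayed proteins bind. A regression on co-assayed BCL2-family reference pairs converts the normalised counts of each replicate to an apparent Kd. Each pool was mated in three replicate cultures.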

The parent's heavy chain CDRs are GFTFDDYAMH, GISWNSGSIGYADSVK, VGRGGGYFDY; each variant's own CDRs replace them letter for letter.
Values are log10 of the apparent Kd in nM; lower means stronger binding.
An entry "nd" has no value in the source: the pair was not observed among the diploids in that replicate. This suggests poor binding but is not conclusive.
Nonspecific signal, from three strains lacking the peptide, appeared in 21% of pairings of library AAYL51, centred on 4.54 (5% of these signals below 3.26); values are not corrected for it.

| CDR-H1 | CDR-H2 | CDR-H3 | replicates, log10 nM |
|---|---|---|---|
| GFTFDDGAMH | GRSWNSGSIGYAKSVK | VGRGGGYFDY | nd nd nd |
| GFTFDDYAMH | GISWNSGPIGYADKVK | WGRGGGYFDY | nd nd 4.52 |
| GFTFHDYAMH | GISWNSGSIGYADSVK | VGRGFLYFDY | nd nd nd |
| GFTFDDYAMH | YISWNSGSIGYADSVK | VVGGGGYFDY | nd nd nd |
| GFTFDDYAMR | GISWNSGSIGYADIVK | VGRGGGYFDQ | nd nd nd |
| GFTFDDYAMH | GISWNSGIGGYADSVK | VGRGGGYHDY | 4.28 5.56 4.63 |
| GFTFDDYAMH | GISWASWSIGYADSVK | VGRGGGYQDY | nd nd nd |
| GFTAYDYAMH | GISWNSGSIGYADSVE | VGRGGGYFDY | 4.95 6.03 nd |
| GFTFDDYAMH | GISWNSGSIGYACSVK | VGRGGGEFDT | 4.04 nd nd |
| GFTFDDYTRA | GISWNSGSIGYADSVK | VGRGGGYFDY | 4.70 4.75 nd |
| GFTFDDYAMH | GISWQSGSIGYAFSVF | VGRGGGYFDY | 4.35 nd nd |
| GFTFDDYAFH | GISWNSGSIGYADSVK | VQRGGGTFDY | nd nd nd |
| GFTFDDYAMF | GISRNSGSIGYADSVK | VIRGGGYFDY | nd 4.88 nd |
| GFTFDDYAMH | GPSWVSGSIGYADSVK | VGIGGGYFDY | nd nd nd |
| GFCFDDYAMH | GESWNSYSIGYADSVK | VGRGGGYFDY | 4.98 nd nd |
| YFTFDDYAMH | GISWNSGSIGAADSVK | VGRGGGYIDY | 4.69 nd nd |
| GFTFDDYAMH | GISWNAGSIGYADTVK | VGRGGGDFDY | 4.64 nd nd |
| GATFKDYAQH | GISWNSGSIGYADSVK | VGRGGGYFDY | nd nd nd |
| GFTFDDYCMH | GISWNSGSIEYADSVK | VGRGGGYFDY | nd nd nd |
| GFRQDDYAMH | GISWNSGSIGYADSVK | VGGGGGYFDY | nd nd nd |
| GITFDDYAMG | GISWNFGSIGYADSVK | VGRGGGYFDY | 4.33 4.85 nd |
| GFTFDDYAMH | GISVNSGSIGYADSVK | VYRGGGYFDY | 3.07 2.44 2.65 |
| GFTFDDYAMH | GCSWNSGSIGYADSVC | VGTGGGYFDY | nd nd nd |
| GFGFDDYAMS | GISWNSGSIHYADSVK | VGRGGGYFDY | 3.31 4.23 4.58 |
| GFTFDDYAMH | GISWNSGSYGYADSVE | VGRGGAYFDY | nd nd nd |
| GFTFDPYLMH | GISWNSFSIGYADSVK | VGRGGGYFDY | 1.24 1.22 1.07 |
| GFTFDDYAMH | GISWNSGSIGYAHSVK | VSRGGGYPDY | nd nd nd |
| GFTFDDYAMH | GISWFPGSIGYADSVN | VGRGGGYFDY | nd 5.42 nd |
| GFTFDDYAMH | GISWNSGMTGYADSVK | VGRGCGYFDY | 2.95 nd 4.80 |
| GFTDDDYAMH | GISWNSHSIGYADSVK | VGRGGGYFNY | nd nd nd |

Source: Engelhart et al. 2022 (doi:10.1038/s41597-022-01779-4), MIT Lincoln Laboratory and A-Alpha Bio; data file from the FLAb repository.